The list shows a part of the results, in another mix than the full data. The source made the active and inactive calls. Cut-off read from the data, not from the text of the source: active = activation above about 30% (passing the limit was not always enough); inconclusive = no clear call, values can overlap the other calls.

This experiment in a line: Wnt/beta-catenin pathway activators, primary screen, cell-based, plate reader, single point (AID 743398).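 Note: 0% = neutral control wells and 100% = positive control wells.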 The conditions noted are these: Wnt/beta-catenin reporter cell assay, activator, at 9.35 µM, stronger effect = higher value.
Consider `CC(C)(C)n1nnnc1C(c1ccnc2ccccc12)N1CCC(n2c(=O)[nH]c3ccccc32)CC1` (configuration not stated), for which the activation was inactive: -1.22%.

Turning to `O=C(NCC1(N2CCCCC2)CCCCC1)c1ccco1`, the activation was inactive: -1.84%.

Regarding `CN(C)c1ccc(C(=O)NCC2(N3CCCCC3)CCCCC2)cc1`, the activation was inactive: -0.563%.

Regarding `Cn1c(=O)[nH]cc(N(CCCl)CCCl)c1=O`, the activation was inactive: -3.69%.

Turning to `COc1cccc(C(c2nnnn2C2CCCCC2)N2CCC(n3c(=O)[nH]c4ccccc43)CC2)c1OC` (configuration not stated), the activation was inactive: -6.56%.

As for `CC(=O)N(c1ccccc1)C1CCNCC1`, the activation is inactive: -0.914%.

On to `CCC(c1nnnn1C1CCCCC1)N1CCC(n2c(=O)[nH]c3ccccc32)CC1` (configuration not stated), for which the activation is inactive: -0.583%.

Take `COc1cc(OC)cc(C(=O)NCC2(N3CCCCC3)CCCCC2)c1`: the activation is inactive: -0.237%.

Take `O=c1[nH]c2ccccc2n1C1CCN(C(c2ccnc3ccccc23)c2nnnn2C2CCCCC2)CC1` (configuration not stated): the activation is inactive: -0.723%.

As to `Cc1ccc(C(=O)NCC2(N3CCCCC3)CCCCC2)o1`, the activation was inactive: 0.266%.

For `Fc1ccccc1NC1CCN(Cc2ccccc2)CC1`, the activation was inactive: -0.986%.

For the compound `Cc1ccc(NC2(C#N)CCN(Cc3ccccc3)CC2)cc1`, the activation was inactive: -0.768%.

Take `COc1cc(OC)cc(C(=O)NCC2(N3CCOCC3)CCCCC2)c1`: the activation was inactive: -1.9%.

As for `COc1cccc(C(c2nnnn2C2CCCC2)N2CCC(n3c(=O)[nH]c4ccccc43)CC2)c1OC` (configuration not stated), the activation is inactive: -2.8%.

As for `COc1cccc(C(=O)N(c2cc(C)cc(C)c2)C2CCN(C(=O)OC(C)(C)C)CC2)c1`, the activation was inactive: -0.872%.

For `CN1CCC(Nc2ccc(Cl)cc2)CC1`, the activation was inactive: 0.209%.

As for `CCOc1ncccc1C(=O)NCC1(N2CCOCC2)CCCCC1`, the activation is inactive: -2.53%.

Regarding `CN1CCC(Nc2ccc(F)c(Cl)c2)CC1`, the activation was inactive: -0.462%.

As for `CC(C)(C)OC(=O)N1CCC(Nc2ccccc2)CC1`, the activation is inactive: -1.89%.

Consider `O=C(O)C1(Nc2ccccc2)CCN(Cc2ccccc2)CC1`, for which the activation was inactive: -0.141%.

For the compound `NN(c1ccccc1)C1CCN(CCc2ccccc2)CC1`, the activation is inactive: -0.619%.

For `O=c1[nH]c2ccccc2n1C1CCN(C(c2cc3ccccc3o2)c2nnnn2C2CCCC2)CC1` (configuration not stated), the activation is inactive: 1.19%.

On to `CCCOc1ccc(C(=O)NCC2(N(C)C)CCCCC2)cc1`, for which the activation was inactive: 0.184%.

Regarding `CCOC(=O)N1CCC(Nc2ccc(C)cc2)CC1`, the activation was inactive: 0.627%.

For the compound `COc1cccc(C(c2nnnn2C(C)(C)C)N2CCC(n3c(=O)[nH]c4ccccc43)CC2)c1OC` (configuration not stated), the activation was inactive: -5.38%.

For `O=c1[nH]c2ccccc2n1C1CCN(C(c2cccs2)c2nnnn2C2CCCC2)CC1` (configuration not stated), the activation was inactive: -1.91%.

As to `CCCCn1nnnc1C(c1cccc(OC)c1OC)N1CCC(n2c(=O)[nH]c3ccccc32)CC1` (configuration not stated), the activation is inactive: -3.96%.

`CCCCn1nnnc1C(c1ccccc1)N1CCC(n2c(=O)[nH]c3ccccc32)CC1` (configuration not stated): the activation is inactive: -1.48%.

Consider `COc1cc(C(=O)NCC2(N3CCOCC3)CCCCC2)cc(OC)c1C`, for which the activation is inactive: -1.99%.

In the case of `O=C(NCC1(N2CCOCC2)CCCCC1)c1cc(Br)ccc1Cl`, the activation was inactive: 2.28%.

For `O=c1[nH]c2ccccc2n1C1CCN(C(c2cccs2)c2nnnn2C2CCCCC2)CC1` (configuration not stated), the activation was inactive: -1.71%.

`COc1ccc(C(=O)NCC2(N3CCOCC3)CCCCC2)cc1OC`: the activation is inactive: -1.55%.

As to `O=c1[nH]c2ccccc2n1C1CCN(C(c2ccnc3ccccc23)c2nnnn2C2CCCC2)CC1` (configuration not stated), the activation was inactive: -2.65%.

For the compound `CN(C)C1(CNC(=O)c2cccc(C#N)c2)CCCCC1`, the activation is inactive: -0.799%.

For the compound `C/C(N)=N\P(=O)(Oc1ccccc1)Oc1ccccc1`, the activation is inactive: -1.34%.

Consider `c1ccc(CN2CCC(Nc3ccccc3)CC2)cc1`, for which the activation is inactive: -0.0495%.

For `CCCN1CCC(Nc2cc(OC)cc(OC)c2)CC1`, the activation is inactive: 0.881%.

`O=c1[nH]c2ccccc2n1C1CCN(C(c2ccccc2)c2nnnn2C2CCCC2)CC1` (configuration not stated): the activation was inactive: -1.66%.

On to `Cc1cc(N(CCCl)CCCl)ccc1C=O`, for which the activation is inactive: 1.49%.

In the case of `CC(C)(C)n1nnnc1C(c1cccc2ccccc12)N1CCC(n2c(=O)[nH]c3ccccc32)CC1` (configuration not stated), the activation was inactive: -4.41%.

`N#Cc1ccc(C(=O)NCC2(N3CCCCC3)CCCCC2)cc1`: the activation was inactive: -0.234%.

Consider `CC(C)(C)OC(=O)N1CCC(N(C(=O)c2ccccc2)c2ccc(Cl)cc2)CC1`, for which the activation was inactive: -0.52%.

These data come from PubChem BioAssay AID743398 (Broad Institute, 2014).
